We go through 2 compounds from ChEMBL document CHEMBL3758122, “Multitarget opioid ligands in pain relief: New players in an old game” (Eur J Med Chem, 2016).

The chains behind the UniProt entries cited, without tags or fusion partners.
UniProt P33535, whole entry: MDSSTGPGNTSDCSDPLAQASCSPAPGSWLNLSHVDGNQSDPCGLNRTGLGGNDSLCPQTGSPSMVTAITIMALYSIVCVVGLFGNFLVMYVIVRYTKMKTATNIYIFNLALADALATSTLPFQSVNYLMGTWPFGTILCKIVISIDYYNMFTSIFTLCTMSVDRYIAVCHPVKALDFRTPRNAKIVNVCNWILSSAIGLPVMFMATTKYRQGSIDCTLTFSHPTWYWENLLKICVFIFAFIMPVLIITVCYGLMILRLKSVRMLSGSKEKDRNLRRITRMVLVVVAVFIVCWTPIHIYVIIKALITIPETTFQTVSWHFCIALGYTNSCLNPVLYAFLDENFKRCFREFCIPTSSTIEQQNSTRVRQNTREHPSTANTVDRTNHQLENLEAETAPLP
UniProt P35372, whole entry: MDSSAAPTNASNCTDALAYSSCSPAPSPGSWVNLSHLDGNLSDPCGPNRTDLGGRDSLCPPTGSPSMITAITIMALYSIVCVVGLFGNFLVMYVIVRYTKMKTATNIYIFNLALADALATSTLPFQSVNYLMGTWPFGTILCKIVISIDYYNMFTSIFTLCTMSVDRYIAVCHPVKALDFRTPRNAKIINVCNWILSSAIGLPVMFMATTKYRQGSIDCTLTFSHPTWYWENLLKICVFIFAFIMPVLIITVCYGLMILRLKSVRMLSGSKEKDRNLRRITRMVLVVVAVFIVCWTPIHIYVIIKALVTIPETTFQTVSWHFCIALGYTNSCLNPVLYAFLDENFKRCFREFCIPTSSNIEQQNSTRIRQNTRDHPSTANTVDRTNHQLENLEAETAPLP

Assay [1] has as its target Mu-type opioid receptor (Rattus norvegicus, UniProt P33535). In words: Displacement of [3H]DPDPE from mu opioid receptor in albino Sprague-Dawley rat after 90 mins by liquid scintillation. (In general: In a radioligand displacement assay an active substance lowers the binding of a labelled ligand.)
For assay [2], the target named is Mu-type opioid receptor (Homo sapiens, UniProt P35372). In words: Binding affinity at mu opioid receptor (unknown origin).

In general, Ki refers to a dissociation constant, usually derived from enzyme kinetics or from competition with a known ligand. High values mean weaker binding, low ones tighter binding. `C=CCN1C[C@H](C)N([C@@H](c2cccc(O)c2)c2cccc(C(=O)N(C)c3cccc(F)c3)c2)C[C@H]1C` came in with a Ki at Mu-type opioid receptor [1] of 0.18 nM. In general, IC50 refers to the concentration needed to halve the response being measured. On Mu-type opioid receptor [2], `C[C@@H](NC(=O)[C@@H](N)Cc1ccc(O)cc1)C(=O)N[C@@H](Cc1ccccc1)C(=O)NCC(=O)N[C@@H](Cc1ccc(O)cc1)C(=O)N1CCC[C@H]1C(=O)N[C@@H](CO)C(N)=O` yielded an IC50 of 36.7 nM.
